Measurements published in PubChem BioAssay AID521 (Sanford-Burnham Center for Chemical Genomics, 2006).
This is a selection; strong and weak results do not stand in their true shares. Calls of active or inactive are those of the source. Cut-off read from the data, not from the text of the source: active = inhibition above about 50%; inconclusive = no clear call, values can overlap the other calls; inactive = below that.

Protein sequences, listed by entry. Tags and fused reporters are not part of them.
UniProt P35236, whole entry: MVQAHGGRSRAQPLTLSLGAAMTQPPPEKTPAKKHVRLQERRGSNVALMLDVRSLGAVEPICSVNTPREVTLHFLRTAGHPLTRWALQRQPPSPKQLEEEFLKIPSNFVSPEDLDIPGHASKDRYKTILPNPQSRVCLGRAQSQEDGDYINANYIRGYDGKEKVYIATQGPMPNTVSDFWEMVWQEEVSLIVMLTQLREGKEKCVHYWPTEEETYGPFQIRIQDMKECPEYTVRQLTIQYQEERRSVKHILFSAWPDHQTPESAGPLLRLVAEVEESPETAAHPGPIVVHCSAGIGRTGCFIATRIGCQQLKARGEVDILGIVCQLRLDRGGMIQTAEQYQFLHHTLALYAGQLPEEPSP

biological target: Tyrosine-protein phosphatase non-receptor type 7 (Homo sapiens) (UniProt P35236); assay: inhibitors of human HePTP phosphatase, primary screen, biochemical, absorbance, leukemia target (AID 521); conditions: recombinant HePTP phosphatase activity, OD absorbance; at 20 µM; stronger effect = higher value;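 note: plate controls were vehicle for no effect and reference inhibitor for full effect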

Compound	inhibition
N/C(=N\O)c1c(N)no[n+]1[O-]	inactive: 4.5%
CCC(CO)(C(=O)OC1CN2CCC1CC2)c1ccccc1 (configuration not stated)	inactive: 4.2%
CCOc1ncccc1C(=O)NCC1(N2CCOCC2)CCCCC1	inactive: 6.4%
Fc1ccccc1NC1CCN(Cc2ccccc2)CC1	inactive: 7%
COc1ccc(NC2CCN(CCc3ccccc3)CC2)c(OC)c1	inactive: 9.8%
O=C(OC1CN2CCC1CC2)C1c2ccccc2Oc2ccccc21 (configuration not stated)	inactive: 11.2%
N#CC1(Nc2ccccc2)CCN(CCc2ccccc2)CC1	inactive: 1.5%
